This is an account of results in article PMC4297708 (Drug and alcohol dependence, 2014).

The chains behind the UniProt entries cited, without tags or fusion partners.
UniProt P23977, whole entry: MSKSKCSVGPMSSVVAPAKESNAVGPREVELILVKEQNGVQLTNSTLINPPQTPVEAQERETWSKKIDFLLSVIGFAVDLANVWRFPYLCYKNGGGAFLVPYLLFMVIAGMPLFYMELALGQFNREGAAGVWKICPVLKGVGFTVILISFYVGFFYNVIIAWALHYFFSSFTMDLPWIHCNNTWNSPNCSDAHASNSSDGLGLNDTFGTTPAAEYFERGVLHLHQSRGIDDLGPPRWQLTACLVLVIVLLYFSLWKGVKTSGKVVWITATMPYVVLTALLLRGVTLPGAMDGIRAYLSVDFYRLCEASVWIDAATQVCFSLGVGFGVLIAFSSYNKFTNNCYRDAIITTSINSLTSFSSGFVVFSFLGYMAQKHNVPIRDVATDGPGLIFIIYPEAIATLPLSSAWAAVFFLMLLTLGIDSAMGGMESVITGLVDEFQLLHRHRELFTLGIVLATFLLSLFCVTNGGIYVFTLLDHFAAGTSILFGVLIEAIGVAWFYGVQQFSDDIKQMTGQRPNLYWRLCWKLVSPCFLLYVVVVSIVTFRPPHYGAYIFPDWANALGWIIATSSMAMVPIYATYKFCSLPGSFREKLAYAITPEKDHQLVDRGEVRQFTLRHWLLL

Molecules are shown by their SMILES.

For the assay, the target named is dopamine transporter (DAT) (Rattus norvegicus, UniProt P23977). The experiment in a line: biochemical.

In general, EC50 refers to the concentration needed to bring the measured effect to its halfway point. High values mean a need for much substance, low ones an effect from little substance. `C[C@H](N)C(=O)c1ccccc1` [Cathinone] displayed an EC50 of 83.1 ± 9 nM.
